{"source": "paper PMC11966042", "about": "“Pharmacological evaluation of drug therapies in Aicardi-Goutières syndrome: insights from patient-derived neural stem cells” (Frontiers in Pharmacology, 2025)", "tested_on": "BJ-NSC", "experiment": "MTT cytotoxicity assay, 72 h drug exposure, BJ-NSCs (healthy control)", "assay_type": "cell-based, human", "experimental": "For NSCs differentiation, iPSCs colonies were seeded in StemMACS iPS-Brew XF medium on diluted Geltrex coated 6-wells plates at a density of 3 × 10^5 cells/well and allowed to recover for 24 h at 37°C 5% CO2, 20% O2. Then, the medium was change to PSC Neural Induction medium (A1647801, Gibco, ThermoFisher Scintific, Italy) and, for 7 days, medium was replaced every other day, according to standard protocol (ThermoFisher Scientific, MAN0008031).\nPatient-specific NSCs and the control BJ-NSCs were maintained in a medium consisting of equal parts of PSC Neural Induction Medium and Advanced DMEM/F12, on diluted Geltrex matrix coated plates (1:100 Geltrex in DMEM/F12 medium).\nAGS2 patient-derived iPSCs were seeded at 3.0 × 10^4 cells/well in a final volume of 100 µL while all the other iPSCs tested (AGS1, AGS7 and BJ-iPSCs) were seeded at 1.0 × 10^4 cells/well; all NSCs were seeded at 1.0 × 10^4 cells/well. After 24 h of incubation at 37°C, 5%CO2, 20% O2, the cultural medium was replaced with a drug-containing medium at serially diluted concentrations (Supplementary Table S1). […] Absorbance was measured at 540–630 nm wavelength (Fluorostar Omega, BMG, Labtech Germany).\nCell metabolic activity was calculated as % cell activity = (absorbance treated/absorbance control)*100, and considered as a measurement of cell viability. […]"}
{"smiles": "Nc1nc2nc[nH]c2c(=S)[nH]1", "note": "[thioguanine]", "values": [{"measurement": "cytotoxicity (in words)", "result": "did not show cytotoxicity"}]}
